From patent publication US11254986B2, “Gene signature for immune therapies in cancer” (ALMAC DIAGNOSTICS LIMITED, priority 2015, dated 2022)

System: RKO Parental and RKO FANCG-/- cells
Assay: Lymphocyte (PBMC) mediated cytotoxicity, LIVE/DEAD Cell-Mediated Cytotoxicity Kit
Assay type: cell-based
Conditions: 5:1, FIG. 28
Procedure: The cytotoxic effects of lymphocytes on cancer cells was measured using LIVE/DEAD® Cell-Mediated Cytotoxicity Kit (Life technologies, Paisley, UK.) RKO parental and Fanc G cells were trypsinised, counted and stained with green-fluorescent membrane stain DiOC18 in PBS at a concentration of 2 μl of stain per ml. Cells were incubated with the stain for 20 minutes at 37° C. before being seeded into 12 well plates at a density of 1×10^5 cells per well and left to adhere overnight. The next day PMBCs were counted and added to RKO cell cultures at the ratios indicated. For 1:1 ratio 1×10^5 PBMCs were added, for 5:1 ratio 5×10^5 PBMCs were added. The co-cultures were incubated for 4 hours before cells were collected for analysis by flow cytometry. A BD FACSCalibur™ (BD Biosciences, CA, USA) was used for the analysis of samples and Flow Jo software was used for data analysis. Cells were treated with interferon-γ at a concentration of 20 ng/ml for 16 hours. Cells were treated with LEAF purified anti-human CD274 (Clone 29E.2A3) antibody (BioLegend, CA, USA) at a concentration of 100 μg/ml for 16 hours prior to addition of PBMCs.

## PDL1 blocking antibody: LEAF purified anti-human CD274 (Clone 29E.2A3) antibody (BioLegend)
DDRD positive RKO FANCG-/- cells, Interferon-γ plus PDL1 antibody versus Interferon-γ alone, p<0.01
  percentage cytotoxicity (PBMC mediated): significantly more cytotoxicity
DDRD positive RKO FANCG-/- cells, Interferon-γ plus PDL1 antibody versus Interferon-γ alone, p<0.01, listed as blocking antibody to PDL-1
  percentage cytotoxicity (PBMC mediated): reverses resistance to PBMC mediated cytotoxicity
Parental RKO cells, IFN plus PDL1 antibody versus IFN alone
  percentage cytotoxicity (PBMC mediated): no significant difference in cytotoxicity
